One test concerns the target human A3 receptor (Homo sapiens (Human), UniProt P0DMS8). Kind of test: cell-based.
Test [1] deals with human A1 adenosine receptor (Homo sapiens (Human), UniProt P30542). Kind of test: biochemical.
Test [2] addresses human A2a adenosine receptor (Homo sapiens (Human), UniProt P29274). Kind of test: biochemical.
For test [3], the target named is human A3 adenosine receptor (Homo sapiens (Human), UniProt P0DMS8). Kind of test: biochemical.

By UniProt entry, the sequences of proteins in these tests, tags left out.
UniProt P0DMS8, whole entry: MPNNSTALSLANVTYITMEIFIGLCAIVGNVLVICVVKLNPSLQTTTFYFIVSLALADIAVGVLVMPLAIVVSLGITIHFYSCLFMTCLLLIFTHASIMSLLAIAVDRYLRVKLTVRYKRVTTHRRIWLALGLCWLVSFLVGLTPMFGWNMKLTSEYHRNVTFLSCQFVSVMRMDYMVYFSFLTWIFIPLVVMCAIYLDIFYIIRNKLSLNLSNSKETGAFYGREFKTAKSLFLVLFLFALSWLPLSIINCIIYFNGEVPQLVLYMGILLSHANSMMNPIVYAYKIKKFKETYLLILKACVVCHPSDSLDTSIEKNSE
UniProt P30542, whole entry: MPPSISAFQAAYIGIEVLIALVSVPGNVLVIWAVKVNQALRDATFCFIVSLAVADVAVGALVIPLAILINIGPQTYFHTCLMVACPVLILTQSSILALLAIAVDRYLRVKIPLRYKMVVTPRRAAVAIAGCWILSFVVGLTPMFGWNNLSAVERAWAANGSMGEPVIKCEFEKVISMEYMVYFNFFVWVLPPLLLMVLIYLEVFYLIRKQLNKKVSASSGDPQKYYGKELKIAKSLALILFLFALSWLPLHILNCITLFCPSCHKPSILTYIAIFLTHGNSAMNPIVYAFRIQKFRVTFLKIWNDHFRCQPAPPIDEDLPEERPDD

Compound `Cn1nnc(-c2cccc(CNc3nccn4c([C@@H]5SC[C@@H](O)[C@H]5O)cnc34)c2)n1` [Compound 214, (2S,3R,4S)-2-(8-((3-(2-methyl-2H-tetrazol-5-yl)benzyl)amino)imidazo[1,2-a]pyrazin-3-yl)tetrahydrothiophene-3,4-diol] came in with an IC50 against human A3 receptor below 10 nM. Besides, the Ki in test [1] is above 10000 nM; in test [2] it was above 10000 nM; in test [3], 100 to 1000 nM. In the case of `Cc1nnc(-c2ccc(CNc3nccn4c([C@@H]5SC[C@@H](O)[C@H]5O)cnc34)cc2F)o1` [Compound 213, (2S,3R,4S)-2-(8-((3-fluoro-4-(5-methyl-1,3,4-oxadiazol-2-yl)benzyl)amino)imidazo[1,2-a]pyrazin-3-yl)tetrahydrothiophene-3,4-diol], the IC50 at human A3 receptor lay within 10 to 100 nM. The values for the Ki in test [1], in test [2] and in test [3] were above 10000 nM, above 10000 nM and 100 to 1000 nM, respectively. Regarding `Cc1cnc(-c2ccc(CNc3nccn4c([C@@H]5SC[C@@H](O)[C@H]5O)cnc34)cc2F)s1` [Compound 212, (2S,3R,4S)-2-(8-((3-fluoro-4-(5-methylthiazol-2-yl)benzyl)amino)imidazo[1,2-a]pyrazin-3-yl)tetrahydrothiophene-3,4-diol], the half-inhibitory concentration (IC50) on human A3 receptor is above 10000 nM. Besides, the Ki in test [1] and in test [2] was above 10000 nM throughout. In turn, `O[C@@H]1[C@H](O)CS[C@H]1c1cnc2c(NCc3cccc(N4CCOCC4)c3)nccn12` [Compound 210, (2S,3R,4S)-2-(8-((3-morpholinobenzyl)amino)imidazo[1,2-a]pyrazin-3-yl)tetrahydrothiophene-3,4-diol] showed an IC50 at human A3 receptor of 10 to 100 nM. For the same compound, the inhibitory constant (Ki) in test [1] is above 10000 nM; in test [2], 1000 to 10000 nM; in test [3], 10 to 100 nM. With `O[C@@H]1[C@H](O)CS[C@H]1c1ncc2c(NCc3cccc(Cl)c3)nccn12` [Compound 219, (2S,3R,4S)-2-(8-((3-chlorobenzyl)amino)imidazo[1,5-a]pyrazin-3-yl)tetrahydrothiophene-3,4-diol], the IC50 against human A3 receptor is above 10000 nM.

On human A3 receptor, `O[C@@H]1[C@H](O)CC[C@H]1c1cnc2c(NCCc3ccc(F)cc3)nccn12` [Compound 226, (1R,2S,3S)-3-(8-((4-fluorophenethyl)amino)imidazo[1,2-a]pyrazin-3-yl)cyclopentane-1,2-diol] registered an IC50 of 10 to 100 nM. On the same count and under the same terms, the result for `O[C@@H]1[C@H](O)CC[C@H]1c1cnc2c(NCCc3cccc(F)c3)nccn12` [Compound 227, (1R,2S,3S)-3-(8-((3-fluorophenethyl)amino)imidazo[1,2-a]pyrazin-3-yl)cyclopentane-1,2-diol] reads above 10000 nM.

For `Cc1cnc(-c2ccc(CNc3nccn4c([C@@H]5SC[C@@H](O)[C@H]5O)nnc34)cc2F)o1` [Compound 93, (2S,3R,4S)-2-(8-((3-fluoro-4-(5-methyloxazol-2-yl)benzyl)amino)-[1,2,4]triazolo[4,3-a]pyrazin-3-yl)tetrahydrothiophene-3,4-diol], the Ki was above 10000 nM in test [1], above 10000 nM in test [2] and 1000 to 10000 nM in test [3]. Compound `O[C@@H]1[C@H](O)CS[C@H]1c1cnc2c(N[C@H]3C[C@@H]3c3ccc(F)c(F)c3)nccn12` [Compound 209, (2S,3R,4S)-2-(8-(((1S,2R)-2-(3,4-difluorophenyl)cyclopropyl)amino)imidazo[1,2-a]pyrazin-3-yl)tetrahydrothiophene-3,4-diol] came in with an IC50 against human A3 receptor of 10 to 100 nM. On the same count and under the same terms, for `O[C@@H]1[C@H](O)CC[C@H]1c1cnc2c(NCc3cc(Cl)cc(Cl)c3)nccn12` [Compound 223, (1R,2S,3S)-3-(8-((3,5-dichlorobenzyl)amino)imidazo[1,2-a]pyrazin-3-yl)cyclopentane-1,2-diol] the value was 10 to 100 nM; for `O[C@@H]1[C@H](O)CC[C@H]1c1cnc2c(NCCc3ccc(F)c(F)c3)nccn12` [Compound 228, (1R,2S,3S)-3-(8-((3,4-difluorophenethyl)amino)imidazo[1,2-a]pyrazin-3-yl)cyclopentane-1,2-diol], 10 to 100 nM.

Compound `Cc1cnc(-c2ccc(CNc3nccn4c([C@@H]5SC[C@@H](O)[C@H]5O)cnc34)cc2F)o1` [Compound 211, (2S,3R,4S)-2-(8-((3-fluoro-4-(5-methyloxazol-2-yl)benzyl)amino)imidazo[1,2-a]pyrazin-3-yl)tetrahydrothiophene-3,4-diol] gave an IC50 against human A3 receptor of 10 to 100 nM. For the same compound, the Ki in test [1] was above 10000 nM; in test [2] it was above 10000 nM; in test [3] it was 100 to 1000 nM. For `O[C@@H]1[C@H](O)CS[C@H]1c1cnc2c(NCCc3ccc(F)cc3F)nccn12` [Compound 193, (2S,3R,4S)-2-(8-((2,4-difluorophenethyl)amino)imidazo[1,2-a]pyrazin-3-yl)tetrahydrothiophene-3,4-diol], the IC50 on human A3 receptor is 10 to 100 nM.

Consider `O[C@@H]1[C@H](O)CS[C@H]1c1cnc2c(NCc3cccc(C4CC4)c3)nccn12` [Compound 202, (2S,3R,4S)-2-(8-((3-cyclopropylbenzyl)amino)imidazo[1,2-a]pyrazin-3-yl)tetrahydrothiophene-3,4-diol], for which the IC50 at human A3 receptor was above 10000 nM.

In turn, `O[C@@H]1[C@H](O)CC[C@H]1c1cnc2c(NCc3cccc(Cl)c3)nccn12` [Compound 222, (1R,2S,3S)-3-(8-((3-chlorobenzyl)amino)imidazo[1,2-a]pyrazin-3-yl)cyclopentane-1,2-diol] yielded an IC50 against human A3 receptor of 10 to 100 nM.

Compound `O[C@@H]1[C@H](O)CS[C@H]1c1cnc2c(NCc3cccc(Cl)c3)nc(Cl)cn12` [Compound 217, (2S,3R,4S)-2-(6-chloro-8-((3-chlorobenzyl)amino)imidazo[1,2-a]pyrazin-3-yl)tetrahydrothiophene-3,4-diol] came in with an IC50 against human A3 receptor below 10 nM.

As for `COC(=O)c1cccc(CNc2nccn3c([C@@H]4SC[C@@H](O)[C@H]4O)cnc23)c1` [Compound 205, methyl 3-(((3-((2S,3R,4S)-3,4-dihydroxytetrahydrothiophen-2-yl)imidazo[1,2-a]pyrazin-8-yl)amino)methyl)benzoate], the IC50 against human A3 receptor lay in the range of 10 to 100 nM. The same measure, in the same setting: the result for `O[C@@H]1[C@H](O)CC[C@H]1c1nnc2c(NCc3cc(Cl)cc(Cl)c3)nccn12` [Compound 233, (1R,2S,3S)-3-(8-((3,5-dichlorobenzyl)amino)-[1,2,4]triazolo[4,3-a]pyrazin-3-yl)cyclopentane-1,2-diol] reads 10 to 100 nM.

(Values after patent US10196396B2 (priority 2016, dated 2019).)
